We go through one substance from publication PMC5322802 (Biochemistry, 2016).

Experiment [1] addresses T1, FABP1 (Mus musculus, UniProt P12710).
T1 sequence (P12710 1-127): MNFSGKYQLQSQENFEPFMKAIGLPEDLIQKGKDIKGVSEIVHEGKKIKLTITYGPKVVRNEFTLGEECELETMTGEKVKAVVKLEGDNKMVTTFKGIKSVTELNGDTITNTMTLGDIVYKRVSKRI
Kind of experiment: NBD-AEA displacement from FABP1. Conditions: displacement of FABP1-bound NBD-AEA (footnote b); 24°C; mean ± SEM, n=5; ND = no significant displacement. It counts as binding, murine.

Experiment [2] addresses T1, FABP1. Description: cis-parinaroyl-CoA displacement from FABP1. As to conditions: displacement of FABP1-bound cis-parinaroyl-CoA (footnote a); 24°C; mean ± SEM, n=5; ND = no significant displacement.

With SR-144528, the Ki entry in experiment [1] and in experiment [2] was “did not displace” each time.
